# Experimental data: PubChem BioAssay (NCI)
#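 Test compounds were applied to cells in 96-well plates for 48 hours at 5 doses. Abbreviation: GI50, concentration required for 50% inhibition of growth. The concentration for full growth arrest is given as TGI.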
# Tests used:
# Assay in all cases: DTP human tumour cell line panel, 48 h
# NCI-H322M lung = system: NCI-H322M lung
# DLD-1 colon = system: DLD-1 colon
# DMS 114 small cell lung = system: DMS 114 small cell lung
# LOX IMVI melanoma = system: LOX IMVI melanoma
# RPMI-8226 leukemia = system: RPMI-8226 leukemia
# OVCAR-4 ovarian = system: OVCAR-4 ovarian
# SW-620 colon = system: SW-620 colon
# SF-268 CNS = system: SF-268 CNS
# SF-295 CNS = system: SF-295 CNS
# RXF 393 renal = system: RXF 393 renal
# UACC-257 melanoma = system: UACC-257 melanoma
# SK-MEL-2 melanoma = system: SK-MEL-2 melanoma
# SR leukemia = system: SR leukemia
# EKVX NSCLC = system: EKVX NSCLC
# SK-MEL-5 melanoma = system: SK-MEL-5 melanoma
# COLO 205 colon = system: COLO 205 colon
# MOLT-4 leukemia = system: MOLT-4 leukemia
# IGROV1 ovarian = system: IGROV1 ovarian
# HCC-2998 colon = system: HCC-2998 colon
# HOP-92 NSCLC = system: HOP-92 NSCLC
# ACHN renal = system: ACHN renal
# NCI-H460 lung = system: NCI-H460 lung
# OVCAR-8 ovarian = system: OVCAR-8 ovarian
# HCT-116 colon = system: HCT-116 colon
# HL-60(TB) leukemia = system: HL-60(TB) leukemia
# U251 CNS = system: U251 CNS
# NCI-H23 lung = system: NCI-H23 lung
# SN12C renal = system: SN12C renal
# UO-31 renal = system: UO-31 renal
# DMS 273 small cell lung = system: DMS 273 small cell lung
# SK-MEL-28 melanoma = system: SK-MEL-28 melanoma
# SNB-75 CNS = system: SNB-75 CNS
# M14 melanoma = system: M14 melanoma
# KM20L2 colon = system: KM20L2 colon
# OVCAR-3 ovarian = system: OVCAR-3 ovarian
# OVCAR-5 ovarian = system: OVCAR-5 ovarian
# TK-10 renal = system: TK-10 renal
# LXFL 529 NSCLC = system: LXFL 529 NSCLC
# NCI-H522 lung = system: NCI-H522 lung
# HOP-62 NSCLC = system: HOP-62 NSCLC
# UACC-62 melanoma = system: UACC-62 melanoma
# HCT-15 colon = system: HCT-15 colon
# K-562 leukemia = system: K-562 leukemia
# SK-OV-3 ovarian = system: SK-OV-3 ovarian
# MALME-3M melanoma = system: MALME-3M melanoma
# KM12 colon = system: KM12 colon
# CCRF-CEM leukemia = system: CCRF-CEM leukemia
# NCI-H226 lung = system: NCI-H226 lung
smiles,measurement,setting,value
CC1(C)OC2OC3COP(=O)(N(CCCl)CCCl)OC3C2O1 (stereo unspecified),GI50,NCI-H322M lung,> 100 µM
same,TGI,NCI-H322M lung,> 100 µM
same,GI50,DLD-1 colon,> 100 µM
same,TGI,DLD-1 colon,> 100 µM
same,GI50,DMS 114 small cell lung,> 100 µM
same,TGI,DMS 114 small cell lung,> 100 µM
same,GI50,LOX IMVI melanoma,> 100 µM
same,TGI,LOX IMVI melanoma,> 100 µM
same,GI50,RPMI-8226 leukemia,> 100 µM
same,TGI,RPMI-8226 leukemia,> 100 µM
same,GI50,OVCAR-4 ovarian,> 100 µM
same,TGI,OVCAR-4 ovarian,> 100 µM
same,GI50,SW-620 colon,> 100 µM
same,TGI,SW-620 colon,> 100 µM
same,GI50,SF-268 CNS,> 100 µM
same,TGI,SF-268 CNS,> 100 µM
same,GI50,SF-295 CNS,> 100 µM
same,TGI,SF-295 CNS,> 100 µM
same,GI50,RXF 393 renal,> 100 µM
same,TGI,RXF 393 renal,> 100 µM
same,GI50,UACC-257 melanoma,> 100 µM
same,TGI,UACC-257 melanoma,> 100 µM
same,GI50,SK-MEL-2 melanoma,> 100 µM
same,TGI,SK-MEL-2 melanoma,> 100 µM
same,GI50,SR leukemia,> 100 µM
same,TGI,SR leukemia,> 100 µM
same,GI50,EKVX NSCLC,> 100 µM
same,TGI,EKVX NSCLC,> 100 µM
same,GI50,SK-MEL-5 melanoma,> 100 µM
same,TGI,SK-MEL-5 melanoma,> 100 µM
same,GI50,COLO 205 colon,> 100 µM
same,TGI,COLO 205 colon,> 100 µM
same,GI50,MOLT-4 leukemia,> 100 µM
same,TGI,MOLT-4 leukemia,> 100 µM
same,GI50,IGROV1 ovarian,> 100 µM
same,TGI,IGROV1 ovarian,> 100 µM
same,GI50,HCC-2998 colon,> 100 µM
same,TGI,HCC-2998 colon,> 100 µM
same,GI50,HOP-92 NSCLC,> 100 µM
same,TGI,HOP-92 NSCLC,> 100 µM
same,GI50,ACHN renal,> 100 µM
same,TGI,ACHN renal,> 100 µM
same,GI50,NCI-H460 lung,> 100 µM
same,TGI,NCI-H460 lung,> 100 µM
same,GI50,OVCAR-8 ovarian,> 100 µM
same,TGI,OVCAR-8 ovarian,> 100 µM
same,GI50,HCT-116 colon,> 100 µM
same,TGI,HCT-116 colon,> 100 µM
same,GI50,HL-60(TB) leukemia,> 100 µM
same,TGI,HL-60(TB) leukemia,> 100 µM
same,GI50,U251 CNS,> 100 µM
same,TGI,U251 CNS,> 100 µM
same,GI50,NCI-H23 lung,> 100 µM
same,TGI,NCI-H23 lung,> 100 µM
same,GI50,SN12C renal,> 100 µM
same,TGI,SN12C renal,> 100 µM
same,GI50,UO-31 renal,> 100 µM
same,TGI,UO-31 renal,> 100 µM
same,GI50,DMS 273 small cell lung,> 100 µM
same,TGI,DMS 273 small cell lung,> 100 µM
same,GI50,SK-MEL-28 melanoma,> 100 µM
same,TGI,SK-MEL-28 melanoma,> 100 µM
same,GI50,SNB-75 CNS,> 100 µM
same,TGI,SNB-75 CNS,> 100 µM
same,GI50,M14 melanoma,> 100 µM
same,TGI,M14 melanoma,> 100 µM
same,GI50,KM20L2 colon,> 100 µM
same,TGI,KM20L2 colon,> 100 µM
same,GI50,OVCAR-3 ovarian,> 100 µM
same,TGI,OVCAR-3 ovarian,> 100 µM
same,GI50,OVCAR-5 ovarian,> 100 µM
same,TGI,OVCAR-5 ovarian,> 100 µM
same,GI50,TK-10 renal,> 100 µM
same,TGI,TK-10 renal,> 100 µM
same,GI50,LXFL 529 NSCLC,> 100 µM
same,TGI,LXFL 529 NSCLC,> 100 µM
same,GI50,NCI-H522 lung,> 100 µM
same,TGI,NCI-H522 lung,> 100 µM
same,GI50,HOP-62 NSCLC,> 100 µM
same,TGI,HOP-62 NSCLC,> 100 µM
same,GI50,UACC-62 melanoma,> 100 µM
same,TGI,UACC-62 melanoma,> 100 µM
same,GI50,HCT-15 colon,> 100 µM
same,TGI,HCT-15 colon,> 100 µM
same,GI50,K-562 leukemia,> 100 µM
same,TGI,K-562 leukemia,> 100 µM
same,GI50,SK-OV-3 ovarian,> 100 µM
same,TGI,SK-OV-3 ovarian,> 100 µM
same,GI50,MALME-3M melanoma,> 100 µM
same,TGI,MALME-3M melanoma,> 100 µM
same,GI50,KM12 colon,> 100 µM
same,TGI,KM12 colon,> 100 µM
same,GI50,CCRF-CEM leukemia,> 100 µM
same,TGI,CCRF-CEM leukemia,> 100 µM
same,GI50,NCI-H226 lung,> 100 µM
same,TGI,NCI-H226 lung,> 100 µM
